Measured values published in BindingDB's records for doi:10.1172/JCI119225 (Cedars-Sinai Research Institute, 1997).

Chains of the proteins cited; added tags and fusions are not shown. Lines headed by an entry give the natural chain unless they say otherwise; changes in a name come on top.
UniProt P31391: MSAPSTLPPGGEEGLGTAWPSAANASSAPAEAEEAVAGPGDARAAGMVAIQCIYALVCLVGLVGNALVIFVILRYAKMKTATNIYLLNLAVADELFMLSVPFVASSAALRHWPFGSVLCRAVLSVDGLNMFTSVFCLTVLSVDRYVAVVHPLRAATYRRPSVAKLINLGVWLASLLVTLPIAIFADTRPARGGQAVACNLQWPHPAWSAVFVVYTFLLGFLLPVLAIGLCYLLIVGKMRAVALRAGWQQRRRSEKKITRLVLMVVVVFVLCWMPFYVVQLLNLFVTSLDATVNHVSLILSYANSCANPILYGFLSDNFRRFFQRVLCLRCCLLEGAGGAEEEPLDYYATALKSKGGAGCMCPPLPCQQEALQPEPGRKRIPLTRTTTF
UniProt P30874: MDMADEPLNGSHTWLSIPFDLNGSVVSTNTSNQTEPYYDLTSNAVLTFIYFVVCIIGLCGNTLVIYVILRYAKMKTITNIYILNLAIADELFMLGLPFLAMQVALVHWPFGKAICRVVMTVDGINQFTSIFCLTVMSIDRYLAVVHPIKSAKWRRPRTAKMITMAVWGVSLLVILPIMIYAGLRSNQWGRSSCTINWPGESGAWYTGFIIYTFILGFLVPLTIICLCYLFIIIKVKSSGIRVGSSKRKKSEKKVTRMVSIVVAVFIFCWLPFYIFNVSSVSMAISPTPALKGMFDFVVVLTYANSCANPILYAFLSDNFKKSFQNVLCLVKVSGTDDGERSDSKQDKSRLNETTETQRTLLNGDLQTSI

What was measured:
[1] = target: Somatostatin receptor type 4 (Homo sapiens, UniProt P31391)
[2] = target: Somatostatin receptor type 2 (Homo sapiens, UniProt P30874)

Question: How did the IC50 [1] turn out when `C[C@@H](O)[C@@H]1NC(=O)[C@H](CCCCN)NC(=O)[C@@H](Cc2c[nH]c3ccccc23)NC(=O)[C@H](Cc2ccccc2)NC(=O)[C@H](Cc2ccccc2)NC(=O)[C@H](N)CSSC[C@H](C(N)=O)NC(=O)[C@H](Cc2ccccc2)NC1=O` was run?
Answer: The IC50 was 0.0163 µM.

Question: For `CC[C@@H]1NC(=O)[C@H](CCCCN)NC(=O)[C@@H](Cc2c[nH]c3ccccc23)NC(=O)[C@H](Cc2ccc(O)cc2)NC(=O)[C@@H](NC(=O)[C@@H](Cc2ccccc2)NS(=O)(=O)CCN2CCN(CCO)CC2)CSSC[C@@H](C(=O)N[C@H](C(N)=O)[C@@H](C)O)NC1=O` [BIM-23197], which IC50 [2] is on record?
Answer: Its IC50 is 0.00019 µM.

Question: What about the IC50 [1] of the same molecule?
Answer: Its IC50 is 1 µM.
